This is an account of results in patent US12465652B2 (AMGEN INC., priority 2017, dated 2025).

The chains behind the UniProt entries cited, without tags or fusion partners. Residues count along the entry.
UniProt P43220, 24-463 limits assumed: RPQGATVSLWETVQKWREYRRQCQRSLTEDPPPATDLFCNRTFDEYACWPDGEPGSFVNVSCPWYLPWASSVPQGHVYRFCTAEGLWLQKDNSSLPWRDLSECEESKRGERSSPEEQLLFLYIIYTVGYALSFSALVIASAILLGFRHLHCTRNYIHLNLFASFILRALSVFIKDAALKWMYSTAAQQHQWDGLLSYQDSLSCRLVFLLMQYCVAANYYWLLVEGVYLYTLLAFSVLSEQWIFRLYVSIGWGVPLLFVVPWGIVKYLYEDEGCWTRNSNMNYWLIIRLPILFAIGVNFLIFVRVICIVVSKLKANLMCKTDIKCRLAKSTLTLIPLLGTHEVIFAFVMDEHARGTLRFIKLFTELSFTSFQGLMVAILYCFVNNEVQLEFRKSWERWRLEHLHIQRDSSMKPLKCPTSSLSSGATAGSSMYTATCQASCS

The target in this test is human GLP-IR (Homo sapiens, UniProt P43220). In words: GLP1 activity | EC50 (pM). The source says: Table printed on a drawing sheet, FIG. 1A
Head of the field: GLP1 activity | EC50 (pM)
The patent's description of the figure: FIG. 1A-1B: Synthetic Peptides (FIG. 1A discloses SEQ ID NOS 3948 and 3275-3298 and FIG. 1B discloses SEQ ID NOS 3948 and 3299-3302, all respectively, in order of appearance)
First copying reader's note: The first head row prints a reference sequence (residues at positions 7-35) above the position numbers; two fully empty rows separate groups of peptides.
Where the first naming reader finds the target: passage: CHOK1 cells stably expressing the human GLP-IR were used to measure peptide or recombinant fusion-induced cAMP production
The molecule `CC[C@H](C)[C@H](NC(=O)[C@H](Cc1ccccc1)NC(=O)[C@H](CCC(=O)O)NC(=O)[C@H](CCCCN)NC(=O)[C@H](C)NC(=O)[C@H](C)NC(=O)[C@H](CCC(N)=O)NC(=O)CNC(=O)[C@H](CCC(=O)O)NC(=O)[C@H](CC(C)C)NC(=O)[C@H](Cc1ccc(O)cc1)NC(=O)[C@H](CO)NC(=O)[C@H](CO)NC(=O)[C@@H](NC(=O)[C@H](CC(=O)O)NC(=O)[C@H](CO)NC(=O)[C@@H](NC(=O)[C@H](Cc1ccccc1)NC(=O)[C@@H](NC(=O)CNC(=O)[C@H](CCCNC(=N)N)NC(=O)CNC(=O)[C@@H](N)Cc1c[nH]cn1)[C@@H](C)O)[C@@H](C)O)C(C)C)C(=O)N[C@@H](C)C(=O)N[C@@H](Cc1c[nH]c2ccccc12)C(=O)N[C@@H](CC(C)C)C(=O)N[C@H](C(=O)N[C@@H](CCCCN)C(=O)NCC(=O)O)C(C)C` [3166748#1, HGRGTFTSDVSSYLEGQAAKEFIAWLVKG] returned an EC50 of 1.4 nM.

Consider `CC[C@H](C)[C@H](NC(=O)[C@H](Cc1ccccc1)NC(=O)[C@H](CCC(=O)O)NC(=O)[C@H](CCCCN)NC(=O)[C@H](C)NC(=O)[C@H](C)NC(=O)[C@H](CCC(N)=O)NC(=O)CNC(=O)[C@H](CCC(=O)O)NC(=O)[C@H](CC(C)C)NC(=O)[C@H](Cc1ccc(O)cc1)NC(=O)[C@H](CO)NC(=O)[C@H](CO)NC(=O)[C@@H](NC(=O)[C@H](CC(=O)O)NC(=O)[C@H](CO)NC(=O)[C@@H](NC(=O)[C@H](Cc1ccccc1)NC(=O)[C@@H](NC(=O)CNC(=O)[C@H](C)NC(=O)CNC(=O)[C@@H](N)Cc1c[nH]cn1)[C@@H](C)O)[C@@H](C)O)C(C)C)C(=O)N[C@@H](C)C(=O)N[C@@H](Cc1c[nH]c2ccccc12)C(=O)N[C@@H](CC(C)C)C(=O)N[C@H](C(=O)N[C@@H](CCCCN)C(=O)NCC(=O)O)C(C)C` [3166733#1, HGAGTFTSDVSSYLEGQAAKEFIAWLVKG], for which it took 0.348 nM to reach a half-maximal effect (EC50). This EC50 lies about 4-fold lower than the previous one. With `CC[C@H](C)[C@H](NC(=O)[C@H](Cc1ccccc1)NC(=O)[C@H](CCC(=O)O)NC(=O)[C@H](CCCCN)NC(=O)[C@H](C)NC(=O)[C@H](C)NC(=O)[C@H](CCC(N)=O)NC(=O)CNC(=O)[C@H](CCC(=O)O)NC(=O)[C@H](CC(C)C)NC(=O)[C@H](Cc1ccc(O)cc1)NC(=O)[C@H](CO)NC(=O)[C@H](CO)NC(=O)[C@@H](NC(=O)[C@H](CC(=O)O)NC(=O)[C@H](CO)NC(=O)[C@@H](NC(=O)[C@H](Cc1ccccc1)NC(=O)[C@@H](NC(=O)[C@H](CO)NC(=O)[C@H](CCC(=O)O)NC(=O)CNC(=O)[C@@H](N)Cc1c[nH]cn1)[C@@H](C)O)[C@@H](C)O)C(C)C)C(=O)N[C@@H](C)C(=O)N[C@@H](Cc1c[nH]c2ccccc12)C(=O)N[C@@H](CC(C)C)C(=O)N[C@H](C(=O)N[C@@H](CCCCN)C(=O)NCC(=O)O)C(C)C` [3166965#1, HGESTFTSDVSSYLEGQAAKEFIAWLVKG], the EC50 was 4.98 nM. With `CC[C@H](C)[C@H](NC(=O)[C@H](Cc1ccccc1)NC(=O)[C@H](CCC(=O)O)NC(=O)[C@H](CCCCN)NC(=O)[C@H](C)NC(=O)[C@H](C)NC(=O)[C@H](CCC(N)=O)NC(=O)CNC(=O)[C@H](CCC(=O)O)NC(=O)[C@H](CC(C)C)NC(=O)[C@H](Cc1ccc(O)cc1)NC(=O)[C@H](CO)NC(=O)[C@H](CO)NC(=O)[C@@H](NC(=O)[C@H](CC(=O)O)NC(=O)[C@H](CO)NC(=O)[C@@H](NC(=O)[C@H](Cc1ccccc1)NC(=O)[C@@H](NC(=O)CNC(=O)[C@H](Cc1c[nH]c2ccccc12)NC(=O)CNC(=O)[C@@H](N)Cc1c[nH]cn1)[C@@H](C)O)[C@@H](C)O)C(C)C)C(=O)N[C@@H](C)C(=O)N[C@@H](Cc1c[nH]c2ccccc12)C(=O)N[C@@H](CC(C)C)C(=O)N[C@H](C(=O)N[C@@H](CCCCN)C(=O)NCC(=O)O)C(C)C` [3166744#1, HGWGTFTSDVSSYLEGQAAKEFIAWLVKG], the EC50 is 2.82 nM. Molecule `CC[C@H](C)[C@H](NC(=O)[C@H](Cc1ccccc1)NC(=O)[C@H](CCC(=O)O)NC(=O)[C@H](CCCCN)NC(=O)[C@H](C)NC(=O)[C@H](C)NC(=O)[C@H](CCC(N)=O)NC(=O)CNC(=O)[C@H](CCC(=O)O)NC(=O)[C@H](CC(C)C)NC(=O)[C@H](Cc1ccc(O)cc1)NC(=O)[C@H](CO)NC(=O)[C@H](CO)NC(=O)[C@@H](NC(=O)[C@H](CC(=O)O)NC(=O)[C@H](CO)NC(=O)[C@@H](NC(=O)[C@H](Cc1ccccc1)NC(=O)[C@@H](NC(=O)[C@H](C)NC(=O)[C@H](CCC(=O)O)NC(=O)CNC(=O)[C@@H](N)Cc1c[nH]cn1)[C@@H](C)O)[C@@H](C)O)C(C)C)C(=O)N[C@@H](C)C(=O)N[C@@H](Cc1c[nH]c2ccccc12)C(=O)N[C@@H](CC(C)C)C(=O)N[C@H](C(=O)N[C@@H](CCCCN)C(=O)NCC(=O)O)C(C)C` [3166964#1, HGEATFTSDVSSYLEGQAAKEFIAWLVKG] displayed an EC50 of 3.51 nM. The result for `CC[C@H](C)[C@H](NC(=O)[C@H](Cc1ccccc1)NC(=O)[C@H](CCC(=O)O)NC(=O)[C@H](CCCCN)NC(=O)[C@H](C)NC(=O)[C@H](C)NC(=O)[C@H](CCC(N)=O)NC(=O)CNC(=O)[C@H](CCC(=O)O)NC(=O)[C@H](CC(C)C)NC(=O)[C@H](Cc1ccc(O)cc1)NC(=O)[C@H](CO)NC(=O)[C@H](CO)NC(=O)[C@@H](NC(=O)[C@H](CC(=O)O)NC(=O)[C@H](CO)NC(=O)[C@@H](NC(=O)[C@H](Cc1ccccc1)NC(=O)[C@@H](NC(=O)[C@H](CCC(=O)O)NC(=O)[C@H](CCC(=O)O)NC(=O)CNC(=O)[C@@H](N)Cc1c[nH]cn1)[C@@H](C)O)[C@@H](C)O)C(C)C)C(=O)N[C@@H](C)C(=O)N[C@@H](Cc1c[nH]c2ccccc12)C(=O)N[C@@H](CC(C)C)C(=O)N[C@H](C(=O)N[C@@H](CCCCN)C(=O)NCC(=O)O)C(C)C` [3166968#1, HGEETFTSDVSSYLEGQAAKEFIAWLVKG] reads 98.7 nM; that for `CC[C@H](C)[C@H](NC(=O)[C@H](Cc1ccccc1)NC(=O)[C@H](CCC(=O)O)NC(=O)[C@H](CCCCN)NC(=O)[C@H](C)NC(=O)[C@H](C)NC(=O)[C@H](CCC(N)=O)NC(=O)CNC(=O)[C@H](CCC(=O)O)NC(=O)[C@H](CC(C)C)NC(=O)[C@H](Cc1ccc(O)cc1)NC(=O)[C@H](CO)NC(=O)[C@H](CO)NC(=O)[C@@H](NC(=O)[C@H](CC(=O)O)NC(=O)[C@H](CO)NC(=O)[C@@H](NC(=O)[C@H](Cc1ccccc1)NC(=O)[C@@H](NC(=O)CNC(=O)[C@H](CC(N)=O)NC(=O)CNC(=O)[C@@H](N)Cc1c[nH]cn1)[C@@H](C)O)[C@@H](C)O)C(C)C)C(=O)N[C@@H](C)C(=O)N[C@@H](Cc1c[nH]c2ccccc12)C(=O)N[C@@H](CC(C)C)C(=O)N[C@H](C(=O)N[C@@H](CCCCN)C(=O)NCC(=O)O)C(C)C` [3166740#1, HGNGTFTSDVSSYLEGQAAKEFIAWLVKG], 0.28 nM; that for `CC[C@H](C)[C@H](NC(=O)[C@H](Cc1ccccc1)NC(=O)[C@H](CCC(=O)O)NC(=O)[C@H](CCCCN)NC(=O)[C@H](C)NC(=O)[C@H](C)NC(=O)[C@H](CCC(N)=O)NC(=O)CNC(=O)[C@H](CCC(=O)O)NC(=O)[C@H](CC(C)C)NC(=O)[C@H](Cc1ccc(O)cc1)NC(=O)[C@H](CO)NC(=O)[C@H](CO)NC(=O)[C@@H](NC(=O)[C@H](CC(=O)O)NC(=O)[C@H](CO)NC(=O)[C@@H](NC(=O)[C@H](Cc1ccccc1)NC(=O)[C@@H](NC(=O)[C@H](CCCCN)NC(=O)[C@H](CCC(=O)O)NC(=O)CNC(=O)[C@@H](N)Cc1c[nH]cn1)[C@@H](C)O)[C@@H](C)O)C(C)C)C(=O)N[C@@H](C)C(=O)N[C@@H](Cc1c[nH]c2ccccc12)C(=O)N[C@@H](CC(C)C)C(=O)N[C@H](C(=O)N[C@@H](CCCCN)C(=O)NCC(=O)O)C(C)C` [3166967#1, HGEKTFTSDVSSYLEGQAAKEFIAWLVKG], approximately 46900 nM. `CC[C@H](C)[C@H](NC(=O)[C@H](Cc1ccccc1)NC(=O)[C@H](CCC(=O)O)NC(=O)[C@H](CCCCN)NC(=O)[C@H](C)NC(=O)[C@H](C)NC(=O)[C@H](CCC(N)=O)NC(=O)CNC(=O)[C@H](CCC(=O)O)NC(=O)[C@H](CC(C)C)NC(=O)[C@H](Cc1ccc(O)cc1)NC(=O)[C@H](CO)NC(=O)[C@H](CO)NC(=O)[C@@H](NC(=O)[C@H](CC(=O)O)NC(=O)[C@H](CO)NC(=O)[C@@H](NC(=O)[C@H](Cc1ccccc1)NC(=O)[C@@H](NC(=O)CNC(=O)[C@@H](NC(=O)CNC(=O)[C@@H](N)Cc1c[nH]cn1)[C@@H](C)O)[C@@H](C)O)[C@@H](C)O)C(C)C)C(=O)N[C@@H](C)C(=O)N[C@@H](Cc1c[nH]c2ccccc12)C(=O)N[C@@H](CC(C)C)C(=O)N[C@H](C(=O)N[C@@H](CCCCN)C(=O)NCC(=O)O)C(C)C` [3166739#1, HGTGTFTSDVSSYLEGQAAKEFIAWLVKG] registered an EC50 of 0.162 nM. Molecule `CC[C@H](C)[C@H](NC(=O)[C@H](Cc1ccccc1)NC(=O)[C@H](CCC(=O)O)NC(=O)[C@H](CCCCN)NC(=O)[C@H](C)NC(=O)[C@H](C)NC(=O)[C@H](CCC(N)=O)NC(=O)CNC(=O)[C@H](CCC(=O)O)NC(=O)[C@H](CC(C)C)NC(=O)[C@H](Cc1ccc(O)cc1)NC(=O)[C@H](CO)NC(=O)[C@H](CO)NC(=O)[C@@H](NC(=O)[C@H](CC(=O)O)NC(=O)[C@H](CO)NC(=O)[C@@H](NC(=O)[C@H](Cc1ccccc1)NC(=O)[C@@H](NC(=O)CNC(=O)[C@H](Cc1ccccc1)NC(=O)CNC(=O)[C@@H](N)Cc1c[nH]cn1)[C@@H](C)O)[C@@H](C)O)C(C)C)C(=O)N[C@@H](C)C(=O)N[C@@H](Cc1c[nH]c2ccccc12)C(=O)N[C@@H](CC(C)C)C(=O)N[C@H](C(=O)N[C@@H](CCCCN)C(=O)NCC(=O)O)C(C)C` [3166737#1, HGFGTFTSDVSSYLEGQAAKEFIAWLVKG] yielded a concentration giving a half-maximal response (EC50) of 3.04 nM.

The EC50 is the concentration needed to bring the measured effect to its halfway point.
